Assay results published in US20150087613A1, “Inhibition of Opioid Antinociceptive Tolerance and Withdrawal in Nociceptive Pain Therapy” (Saint Louis University, priority 2013, published 2015).

Biological target: T1, mA3AR (Mus musculus, UniProt Q61618)
T1 construct: expressed in transfected cells
T1 sequence (Q61618 1-319): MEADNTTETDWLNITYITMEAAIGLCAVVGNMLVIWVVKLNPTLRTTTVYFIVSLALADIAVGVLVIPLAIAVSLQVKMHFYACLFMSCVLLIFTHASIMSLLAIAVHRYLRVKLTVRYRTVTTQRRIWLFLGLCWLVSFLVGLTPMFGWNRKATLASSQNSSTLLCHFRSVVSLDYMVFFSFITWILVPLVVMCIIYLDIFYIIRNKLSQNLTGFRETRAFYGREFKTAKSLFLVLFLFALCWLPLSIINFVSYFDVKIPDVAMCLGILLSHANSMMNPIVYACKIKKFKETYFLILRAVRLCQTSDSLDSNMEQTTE
Assay: cAMP assay, inhibition of forskolin-stimulated cAMP in mA3AR-transfected HEK cells
Format: cell-based
Conditions: HEK293; read-out: % efficacy, A3

## O[C@@H]1[C@H](O)[C@@H]2C[C@@H]2[C@H]1n1cnc2c(NCCc3ccccc3)nc(C#Cc3ccccc3)nc21 [Compound 14]
  Emax: 14.3 ± 6.1%
